The values that follow come from US20200199102A1, “COMPOUNDS THAT PARTICIPATE IN COOPERATIVE BINDING AND USES THEREOF” (Revolution Medicines, Inc., priority 2017, published 2020).

The chains behind the UniProt entries cited, without tags or fusion partners.
UniProt P62937, whole entry, species assumed: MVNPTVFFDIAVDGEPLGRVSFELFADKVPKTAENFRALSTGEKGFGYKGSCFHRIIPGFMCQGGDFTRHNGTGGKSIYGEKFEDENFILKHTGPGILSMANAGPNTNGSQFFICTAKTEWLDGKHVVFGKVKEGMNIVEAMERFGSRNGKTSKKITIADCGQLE

The test concerns the target T1, Cyclophilin A (Homo sapiens, UniProt P62937).
T1 construct: made in house
Description: AlphaLISA inhibition of binding of biotinylated Cyclosporin A to FLAG tagged Cyclophilin A. As to conditions: test concentration not given. From the text:
The binding of compounds of the invention to Cyclophilin A can be determined using the following protocol.
This protocol utilizes Perkin Elmers AlphaLISA technology platform to detect cyclosporine analogues by measuring the inhibition of binding of biotinylated Cyclosporin A to FLAG tagged Cyclophilin A.
10×TBST Buffer (Boston BioProducts IBB-181), Biotinylated Cyclosporin A (in-house), FLAG tagged Cyclophilin A (in-house); anti-FLAG Donor beads (PerkinElmer AS103) and Streptavidin Acceptor beads (PerkinElmer AL125); Compounds in DMSO (in-house), Cyclosporin A (LC Labs Cat #C-6000).
Add 20 uL of 6 nM Biotinylated CsA working stock to each well of the 96-well plate. Add 1 uL of test compound (100% DMSO) to each well of the plate using the Janus MTD head and P20 tips (except control wells). Add 1 uL of DMSO to negative control wells and 1 uL of 500 uM Cyclosporin A solution to positive control wells. In the dark, add 20 uL of combined Donor/Acceptor beads to each well. Incubate in the dark for 30 minutes at room temperature. In the dark, add 10 uL of 25 nM Flag tagged CypA working stock to each well. Incubate in the dark for 60 minutes at room temperature. Protect plate from light until reading on Biotek Synergy2 Plate Reader; Alphalisa 96-well protocol (680 excitation/615 emission).
(In general: In Alpha technology, singlet oxygen from a donor bead excites a nearby acceptor bead.)

With `C/C=C/C[C@@H](C)[C@@H](O)[C@H]1C(=O)N[C@@H](CC)C(=O)N(C)CC(=O)N(C)[C@@H](CC(C)C)C(=O)N[C@@H](CC(C)C)C(=O)N(C)[C@@H](C)C(=O)N[C@@H](C)C(=O)N[C@H](C)C(=O)N(C)[C@@H](CC(C)C)C(=O)N(C)[C@@H](CC(C)C)C(=O)N(C)[C@@H](C(C)C)C(=O)N1C` [Compound C14], the “% inhibition of CsA binding to Cyclophilin A” value amounted to 90.64%. Under `C/C=C/C[C@@H](C)[C@@H](O)[C@H]1C(=O)N[C@@H](CC)C(=O)N(C)CC(=O)N(C)[C@@H](C)C(=O)N[C@@H](C)C(=O)N(C)CC(=O)N[C@@H](C)C(=O)N[C@H](C)C(=O)N(C)[C@@H](CC(C)C)C(=O)N(C)[C@@H](CC(C)C)C(=O)N(C)[C@@H](C(C)C)C(=O)N1C` [Compound C18] stands 97.88%. Under `C/C=C/C[C@@H](C)[C@@H](O)[C@H]1C(=O)N[C@@H](CC)C(=O)N(C)CC(=O)N(C)[C@@H]([C@@H](C)CC)C(=O)N[C@@H](C(C)C)C(=O)N(C)CC(=O)N[C@@H](C)C(=O)N[C@H](C)C(=O)N(C)[C@@H](CC(C)C)C(=O)N(C)[C@@H](CC(C)C)C(=O)N(C)[C@@H](C(C)C)C(=O)N1C` [Compound C25] stands 99.63%; under `C/C=C/C[C@@H](C)[C@@H](O)[C@H]1C(=O)N[C@@H](CC)C(=O)N(C)CC(=O)N(C)[C@@H]([C@@H](C)O)C(=O)N[C@@H](C(C)(C)C)C(=O)N(C)[C@@H](C)C(=O)N[C@@H](CC(C)C)C(=O)N[C@H](C)C(=O)N(C)[C@@H](CC(C)C)C(=O)N(C)[C@@H](CC(C)C)C(=O)N(C)[C@@H](C(C)C)C(=O)N1C` [Compound C75], 96.12%; under `C/C=C/C[C@@H](C)[C@@H](O)[C@H]1C(=O)N[C@@H](CC)C(=O)N(C)CC(=O)N(C)[C@@H](C(C)C)C(=O)N[C@@H](C(C)(C)C)C(=O)N(C)[C@@H](C)C(=O)N[C@@H](CC(C)C)C(=O)N[C@H](C)C(=O)N(C)[C@@H](CC(C)C)C(=O)N(C)[C@@H](CC(C)C)C(=O)N(C)[C@@H](C(C)C)C(=O)N1C` [Compound C77], 99.56%. The figure for `C/C=C/C[C@@H](C)[C@@H](O)[C@H]1C(=O)N[C@@H](CC)C(=O)N(C)CC(=O)N(C)[C@H](C)C(=O)N[C@@H](C(C)C)C(=O)N(C)[C@@H](C)C(=O)N[C@@H](CC(C)C)C(=O)N[C@H](C)C(=O)N(C)[C@@H](CC(C)C)C(=O)N(C)[C@@H](CC(C)C)C(=O)N(C)[C@@H](C(C)C)C(=O)N1C` [Compound C83] is 99.35%. `C/C=C/C[C@@H](C)[C@@H](O)[C@H]1C(=O)N[C@@H](CC)C(=O)N(C)CC(=O)N(C)[C@@H](Cc2ccc(O)cc2)C(=O)N[C@@H](C(C)C)C(=O)N(C)[C@@H](CC(C)C)C(=O)N[C@@H](CC)C(=O)N[C@H](C)C(=O)N(C)[C@@H](CC(C)C)C(=O)N(C)[C@@H](CC(C)C)C(=O)N(C)[C@@H](C(C)C)C(=O)N1C` [Compound C100]: the “% inhibition of CsA binding to Cyclophilin A” value turned out to be 95.72%. The figure for `C/C=C/C[C@@H](C)[C@@H](O)[C@H]1C(=O)N[C@@H](CC)C(=O)N(C)CC(=O)N(C)[C@@H](CCC)C(=O)N[C@@H](C(C)C)C(=O)N(C)[C@@H](CC(C)C)C(=O)N[C@@H](CC)C(=O)N[C@H](C)C(=O)N(C)[C@@H](CC(C)C)C(=O)N(C)[C@@H](CC(C)C)C(=O)N(C)[C@@H](C(C)C)C(=O)N1C` [Compound C102] is 99.30%.
